Target: Src SH2 domain
Test: fluorescence polarization, competition with fluorescein-Gly-pTyr-Glu-Glu-Ile-NH2

IC50: 35.6 µM
B1: ATP-1,13-Trioxa-SA-pTyr-γ-p-azidoGlu-Glu-Ile-OH (7) (peptide)
peptide: YEEI
modifications: 8-azido-ATP linked through 4,7,10-trioxa-1,13-tridecanediamine and succinoyl to the N-terminus; phosphotyrosine at 1; p-azidophenylamino group on the γ-carboxyl of Glu 2 (P+1)
notes: also called compound 7; diazido ATP-phosphopeptide conjugate 7
